{"source": "paper PMC3028519", "about": "(Toxicology and applied pharmacology, 2010)", "experiment": "Disposition of Hg", "conditions": "24 h", "key": {"[1]": {"conditions": "both control and TR− rats, data not shown"}}}
{"substance": "Cysteine-S-conjugate of CH3HgCl [Cys-S-CH3Hg]", "values": [{"measurement": "hematological burden of Hg, compared with rats of the same strain exposed to HgCl2 or CH3HgCl alone", "setting": "TR− rats, i.v.", "value": "significantly lower and half"}, {"measurement": "hepatic burden of Hg, compared with rats of the same strain exposed to HgCl2 or CH3HgCl alone", "setting": "TR− rats, i.v.", "value": "significantly greater"}, {"measurement": "renal burden of Hg, compared with rats of the same strain exposed to HgCl2 or CH3HgCl alone", "setting": "TR− rats, i.v.", "value": "four-fold greater"}, {"measurement": "urinary excretion of Hg, compared with rats of the same strain exposed to HgCl2 or CH3HgCl alone", "setting": "TR− rats, i.v.", "value": "less Hg in the urine"}, {"measurement": "hematological burden of Hg associated with cellular components of blood", "setting": "[1]", "value": "approximately 99%"}, {"measurement": "hematological burden of Hg present in plasma", "setting": "[1]", "value": "~1", "unit": "%"}, {"measurement": "fecal excretion of Hg, compared with rats of the same strain exposed to HgCl2 or CH3HgCl alone", "setting": "control rats, i.v.", "value": "increased significantly"}, {"measurement": "hematological burden of Hg, compared with rats of the same strain exposed to HgCl2 or CH3HgCl alone", "setting": "control rats, i.v.", "value": "significantly lower and half"}, {"measurement": "hepatic burden of Hg, compared with rats of the same strain exposed to HgCl2 or CH3HgCl alone", "setting": "control rats, i.v.", "value": "significantly greater"}, {"measurement": "renal burden of Hg, compared with rats of the same strain exposed to HgCl2 or CH3HgCl alone", "setting": "control rats, i.v.", "value": "four-fold greater"}, {"measurement": "urinary excretion of Hg, compared with rats of the same strain exposed to HgCl2 or CH3HgCl alone", "setting": "control rats, i.v.", "value": "twofold greater"}, {"measurement": "amount of Hg in blood, TR− rats compared with corresponding control rats", "setting": "i.v.", "value": "did not significantly alter"}, {"measurement": "renal burden of Hg, TR− rats compared with corresponding control rats", "setting": "i.v.", "value": "slightly, yet significantly, greater"}, {"measurement": "renal burden of Hg", "setting": "rats, strain not stated (discussion), i.v.", "value": "~20 % of the dose"}]}
